Values of other authors, collected in paper PMC3970923.

By UniProt entry, the sequences of proteins in these tests, tags left out. Where a name states a change or a piece, a line headed by the entry shows the natural chain unless it says otherwise. Residues count along the entry.
UniProt Q00560: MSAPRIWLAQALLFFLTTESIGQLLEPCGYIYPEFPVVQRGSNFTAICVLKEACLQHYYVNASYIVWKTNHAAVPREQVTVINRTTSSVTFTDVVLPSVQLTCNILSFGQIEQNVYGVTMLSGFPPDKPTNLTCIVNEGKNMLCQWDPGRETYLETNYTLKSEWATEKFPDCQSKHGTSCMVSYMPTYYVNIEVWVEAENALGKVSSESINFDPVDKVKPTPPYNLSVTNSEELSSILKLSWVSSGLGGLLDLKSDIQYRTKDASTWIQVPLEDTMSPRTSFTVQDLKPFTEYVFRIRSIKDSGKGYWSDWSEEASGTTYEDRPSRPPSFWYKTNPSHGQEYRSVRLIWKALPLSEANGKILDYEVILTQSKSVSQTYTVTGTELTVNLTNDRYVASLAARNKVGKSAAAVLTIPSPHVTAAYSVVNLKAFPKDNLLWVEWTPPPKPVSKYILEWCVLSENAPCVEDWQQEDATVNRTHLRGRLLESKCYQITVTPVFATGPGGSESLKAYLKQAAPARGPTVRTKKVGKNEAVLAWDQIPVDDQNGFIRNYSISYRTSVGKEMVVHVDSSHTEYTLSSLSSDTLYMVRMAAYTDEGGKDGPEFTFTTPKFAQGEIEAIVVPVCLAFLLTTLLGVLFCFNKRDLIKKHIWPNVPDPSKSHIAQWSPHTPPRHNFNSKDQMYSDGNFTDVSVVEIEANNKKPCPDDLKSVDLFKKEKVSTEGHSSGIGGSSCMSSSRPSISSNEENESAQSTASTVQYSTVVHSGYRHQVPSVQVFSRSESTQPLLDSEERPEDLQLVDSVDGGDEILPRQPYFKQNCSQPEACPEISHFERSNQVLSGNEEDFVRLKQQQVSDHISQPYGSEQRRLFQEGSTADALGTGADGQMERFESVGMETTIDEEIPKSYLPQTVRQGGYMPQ
UniProt O35718, 46-142: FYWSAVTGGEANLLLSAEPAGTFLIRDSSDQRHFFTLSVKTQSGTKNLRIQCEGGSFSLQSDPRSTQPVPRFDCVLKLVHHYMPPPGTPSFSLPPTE

Molecular target: gp130 (UniProt Q00560)

In the case of SOCS3 SH2 (from UniProt O35718), the Kd is listed as 100 nM.
